Measured values published in patent US20050032750A1, “Treating androgen deficiency in female (ADIF)-associated conditions with SARMS” (priority 2003, published 2005).

Test system: ovariectomized female rats
Test: Bone mineral content by whole body DEXA after ovariectomy (Example 2)
Format: in vivo, rat
Conditions: OVX female rats, 30 day treatment period

CC(=O)Nc1ccc(OC[C@](C)(O)C(=O)Nc2ccc([N+](=O)[O-])c(C(F)(F)F)c2)cc1 [Compound VI, S-3-(4-acetylamino-phenoxy)-2-hydroxy-2-methyl-N-(4-nitro-3-trifluoromethyl-phenyl)-propionamide]
BMC increase relative to placebo-treated ovariectomized controls (0.1 mg): approximately 5% | BMC increase relative to placebo-treated ovariectomized controls (0.3 mg): ~8.3% | BMC increase relative to placebo-treated ovariectomized controls (0.5 mg): ~4.7% | BMC increase relative to placebo-treated ovariectomized controls (0.75 mg): ~8.3% | BMC increase relative to placebo-treated ovariectomized controls (1 mg): ~10% | BMC increase relative to placebo-treated ovariectomized controls (3 mg): ~11.6%
